Key:
[1] = target: T1, Interleukin-1 receptor-associated kinase 4 (Homo sapiens, UniProt Q9NWZ3)
[2] = target: T1, Interleukin-1 receptor-associated kinase 4; remark: listed apart in the source

The chains behind the UniProt entries cited, without tags or fusion partners.
UniProt Q9NWZ3, whole entry: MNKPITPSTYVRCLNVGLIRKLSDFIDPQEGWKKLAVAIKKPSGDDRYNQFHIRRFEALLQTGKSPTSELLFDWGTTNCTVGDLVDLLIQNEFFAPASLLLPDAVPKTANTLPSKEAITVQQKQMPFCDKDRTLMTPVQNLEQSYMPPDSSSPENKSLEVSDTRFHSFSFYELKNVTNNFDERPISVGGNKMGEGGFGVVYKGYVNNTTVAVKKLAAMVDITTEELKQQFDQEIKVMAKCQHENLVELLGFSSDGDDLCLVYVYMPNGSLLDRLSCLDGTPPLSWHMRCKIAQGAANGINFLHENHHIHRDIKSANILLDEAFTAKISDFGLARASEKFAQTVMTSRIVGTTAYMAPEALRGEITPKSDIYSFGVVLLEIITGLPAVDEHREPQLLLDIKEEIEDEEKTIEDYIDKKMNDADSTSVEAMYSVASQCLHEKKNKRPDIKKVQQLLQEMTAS

IC50 [1]: 1.9 µM | IC50 [2]: 4.2 µM
SMILES: O=c1[nH]c(N2CCOCC2)nc(N[C@@H]2CCCNC2)c1-c1nc2ccccc2s1

Reference: ChEMBL document CHEMBL3621203, “Discovery and Structure Enabled Synthesis of 2,6-Diaminopyrimidin-4-one IRAK4 Inhibitors” (ACS Med Chem Lett, 2015)
